# Test results taken from PubChem BioAssay AID2524 (Sanford-Burnham Center for Chemical Genomics, 2010).
# Chains of the proteins cited; added tags and fusions are not shown. Lines headed by an entry give the natural chain unless they say otherwise; changes in a name come on top.
# UniProt P09923: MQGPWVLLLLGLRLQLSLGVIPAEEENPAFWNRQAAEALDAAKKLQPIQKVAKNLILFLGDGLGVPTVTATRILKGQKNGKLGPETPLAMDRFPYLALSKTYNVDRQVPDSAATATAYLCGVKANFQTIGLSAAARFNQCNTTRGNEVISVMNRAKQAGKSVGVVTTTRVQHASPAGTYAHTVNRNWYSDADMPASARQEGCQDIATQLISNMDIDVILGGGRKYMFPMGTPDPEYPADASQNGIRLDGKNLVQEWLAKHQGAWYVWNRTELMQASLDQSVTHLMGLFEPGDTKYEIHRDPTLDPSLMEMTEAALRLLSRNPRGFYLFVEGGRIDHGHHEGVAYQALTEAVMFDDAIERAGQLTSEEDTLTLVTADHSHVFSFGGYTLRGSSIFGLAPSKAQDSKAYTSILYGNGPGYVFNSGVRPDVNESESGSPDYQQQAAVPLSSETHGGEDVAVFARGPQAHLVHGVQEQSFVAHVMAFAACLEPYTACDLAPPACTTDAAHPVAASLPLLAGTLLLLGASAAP
# This is a selection; strong and weak results do not stand in their true shares. The source made the active and inactive calls.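 How the source made its calls: active means activation factor of the enzyme at least 2-fold when tested at 20 µM; inactive means the rest.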
# Target: Intestinal-type alkaline phosphatase (Homo sapiens) (UniProt P09923)
# Test: enzymatic activation of intestinal alkaline phosphatase – biochemical, luminescence, uHTS, primary screen (AID 2524)
# Conditions: purified human IAP, CDP-Star luminescence, 30 min; at 10 µM; active compounds read high; 1 = vehicle-only enzyme, 0 = enzyme-free background
row,Compound,activation factor
1,CCOP1(=S)c2c(C)nn(CCC#N)c2N=C(c2ccc(F)cc2)N1C (stereo not drawn),inactive: 0.612
2,CN(C)C(=O)c1cc([N+](=O)[O-])cc2c1-c1c(cc([N+](=O)[O-])cc1[N+](=O)[O-])C2=O,inactive: 0.944
3,O=[N+]([O-])c1ccc2c(c1)nnn2O,inactive: 0.918
4,CN(C(=O)Cc1ccc(Cl)c(Cl)c1)[C@H]1CC[C@@]2(CCCO2)C[C@@H]1N1CCCC1,inactive: 0.854
5,O=C(OC1CN2CCC1CC2)c1ccc(Cl)cc1 (stereo not drawn),inactive: 0.928
6,COc1cc(C(=O)NCC2(N3CCOCC3)CCCCC2)cc(Cl)c1OC(C)C,inactive: 1.1
7,O=[As](O)(O)c1cccnc1,inactive: 0.953
8,CS(=O)(=O)c1ccc(Cl)c(NC(=O)COC(=O)C(O)(c2ccccc2)c2ccccc2)c1,inactive: 1.26
9,O=[As](O)(c1cccc(O)c1)c1cccc(O)c1,inactive: 0.878
10,Cc1cccc(OCC(=O)OC2CN3CCC2CC3)c1 (stereo not drawn),inactive: 0.872
11,Cc1ccc(NCCc2c([N+](=O)[O-])cc([N+](=O)[O-])cc2[N+](=O)[O-])cc1,inactive: 0.928
12,CCCOP(=S)(Nc1nc(N)cc(=O)[nH]1)OCCC,inactive: 1.09
13,COc1cc(C2NCCC3(OCCO3)C2(C)C)cc(OC)c1OC (stereo not drawn),inactive: 1.14
14,CCOP(=O)(Nc1cccc2ccccc12)OCC,inactive: 0.927
15,Cc1c2c(nc3ccccc13)SC(C(Cl)Cl)C2 (stereo not drawn),inactive: 0.915
16,O=C(OC1CN2CCC1CC2)C12CC3CC(CC(C3)C1)C2 (stereo not drawn),inactive: 0.921
17,Cc1cc(=O)[nH]c(N[N+](=O)[O-])n1,inactive: 1.06
18,COc1ccc2nc(NP(=O)(c3ccccc3)c3ccccc3)sc2c1,inactive: 1.09
19,COc1cc(I)ccc1[As](=O)(O)O,inactive: 0.885
20,COc1ccc(N/C(=N/P(=O)(N2CCOCC2)N2CCOCC2)N2CCOCC2)cc1,inactive: 0.968
21,C[As](=O)(O)c1cccc(C(=O)O)c1,inactive: 1.02
22,O=[As](O)(c1ccc(O)cc1)c1ccccc1O,inactive: 1.12

row,Compound,activation factor
1,COc1cc(C(=O)NCC2(N3CCOCC3)CCCCC2)ccc1OCC(C)C,inactive: 1.12
2,Cc1ccc(OP(=O)(Nc2ccc([N+](=O)[O-])cn2)Oc2ccc(C)cc2)cc1,inactive: 1.04
3,Cc1ccc2nc3c(c(C)c2c1)CC(C(Cl)Cl)S3 (stereo not drawn),inactive: 0.895
4,ClCCSc1nnc(-c2cccnc2)o1,inactive: 0.883
5,CC(C)c1ccc(OP(=O)(Nc2ccccn2)Oc2ccccc2F)cc1 (stereo not drawn),inactive: 0.909
6,CCN(CC)C(=S)SC(NC=O)C(Cl)(Cl)Cl (stereo not drawn),inactive: 1.17
7,O=C(OC1CN2CCC1CC2)c1cccc2[nH]cnc12 (stereo not drawn),inactive: 1.27
8,CC(C)NC(=O)NP(=O)(Oc1ccccc1)Oc1ccccc1,inactive: 1.02
9,O=[N+]([O-])c1cc([N+](=O)[O-])c(-c2ccn[nH]2)s1,inactive: 0.89
10,CCOC(=O)Nc1ccc([As](=O)(O)O)c(O)c1,inactive: 1.06
11,CCCCOc1ccc(C(=O)NCC2(N3CCCCC3)CCCCC2)cc1OC,inactive: 1.12
12,Cc1cc(SC(NC(=O)c2ccccc2)C(Cl)(Cl)Cl)nc(C(C)C)n1 (stereo not drawn),inactive: 0.983
13,CCOC(=O)Nc1cccc([As](=O)(O)O)c1,inactive: 1.01
14,Cc1cc(SC(NC=O)C(Cl)(Cl)Cl)ncn1 (stereo not drawn),inactive: 1.22
15,O=P(Nc1ccccn1)(c1cccc2ccccc12)c1cccc2ccccc12,inactive: 0.95
16,COP1(=S)c2c(C)nn(CCC#N)c2N=C(c2ccc(F)cc2)N1C (stereo not drawn),inactive: 0.951
17,O=C(COc1ccccc1)OC1CN2CCC1CC2 (stereo not drawn),inactive: 1.13
18,O=C(Nc1ccncc1[N+](=O)[O-])c1ccc([N+](=O)[O-])cc1[N+](=O)[O-],inactive: 1.12
19,O=C(OC1CN2CCC1CC2)c1cccc([N+](=O)[O-])c1 (stereo not drawn),inactive: 0.953
20,CCOC(=O)c1ccc(NC(=O)C(C)(CCl)SC)cc1 (stereo not drawn),inactive: 0.999
21,CCC(C)N(CC(C)C)C(=S)SC(NC(C)=O)C(Cl)(Cl)Cl (stereo not drawn),inactive: 1.09
